Laboratory results reported in US20230265247A1, “PROCESS FOR PREPARING POLYIMIDES” (Technische Universität Wien, priority 2020, published 2023).

Conditions: salts of tetrahydrofuran-2,3,4,5-tetracarboxylic acid; 1 ml distilled water with around 20 to 40% by weight of salt, stirred 15 minutes; no = no clear solution

In the case of `Nc1cccc(N)c1.O=C(O)C1OC(C(=O)O)C(C(=O)O)C1C(=O)O` (stereo not shown) [Example V3], the Salt is water-soluble is reported as “no”.
